By UniProt entry, the sequences of proteins in these tests, tags left out. Where a name states a change or a piece, a line headed by the entry shows the natural chain unless it says otherwise.
UniProt P43490: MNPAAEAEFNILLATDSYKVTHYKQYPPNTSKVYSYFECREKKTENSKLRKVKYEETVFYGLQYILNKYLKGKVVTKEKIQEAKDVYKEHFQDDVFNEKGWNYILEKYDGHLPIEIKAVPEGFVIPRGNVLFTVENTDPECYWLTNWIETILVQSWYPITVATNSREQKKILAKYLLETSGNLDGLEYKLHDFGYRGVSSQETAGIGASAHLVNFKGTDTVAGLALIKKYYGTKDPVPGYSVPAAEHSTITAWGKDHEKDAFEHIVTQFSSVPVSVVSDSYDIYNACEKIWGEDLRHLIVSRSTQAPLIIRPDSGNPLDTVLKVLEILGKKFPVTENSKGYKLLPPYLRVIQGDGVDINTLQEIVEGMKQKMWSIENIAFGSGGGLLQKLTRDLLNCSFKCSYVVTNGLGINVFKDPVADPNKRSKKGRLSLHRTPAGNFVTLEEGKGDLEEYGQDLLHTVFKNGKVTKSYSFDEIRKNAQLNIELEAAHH

According to patent US9302989B2 (priority 2010, dated 2016):

Target: NAMPT (Homo sapiens (Human), UniProt P43490)
Details: read-out: TR-FRET Binding IC50 (μM) probe 1

Substance “N-{4-[(3R)-3-(butyrylamino)pyrrolidin-1-yl]phenyl}-1,3-dihydro-2H-isoindole-2-carboxamide and N-{4-[(3S)-3-(butyrylamino)pyrrolidin-1-yl]phenyl}-1,3-dihydro-2H-isoindole-2-carboxamide [Example 340]” has an IC50 of 0.783 µM.
